Biological target: T1, Nuclear receptor ROR-gamma (Mus musculus) (UniProt P51450)
T1 sequence (whole entry): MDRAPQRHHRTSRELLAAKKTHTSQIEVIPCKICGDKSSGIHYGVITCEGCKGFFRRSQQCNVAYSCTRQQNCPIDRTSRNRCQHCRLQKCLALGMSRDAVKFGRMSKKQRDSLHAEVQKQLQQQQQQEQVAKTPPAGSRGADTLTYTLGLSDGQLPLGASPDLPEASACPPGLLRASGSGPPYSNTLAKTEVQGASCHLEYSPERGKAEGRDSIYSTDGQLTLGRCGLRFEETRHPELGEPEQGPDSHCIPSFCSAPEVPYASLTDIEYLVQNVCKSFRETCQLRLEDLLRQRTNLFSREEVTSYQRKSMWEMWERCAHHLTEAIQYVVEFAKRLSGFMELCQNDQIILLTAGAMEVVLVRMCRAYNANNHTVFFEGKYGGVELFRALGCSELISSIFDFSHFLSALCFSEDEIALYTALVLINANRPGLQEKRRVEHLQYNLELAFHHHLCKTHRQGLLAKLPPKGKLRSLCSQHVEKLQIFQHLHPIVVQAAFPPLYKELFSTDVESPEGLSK
Assay: Agonist activity at RORgammat in po dosed C57BL6 mouse allografted with mouse MC38 cells assessed as increase in IL-17A expression in lymph node administered as po bid for 28 days by TaqMan probe based assay
Format: functional, organism-based

`C[C@]1(C(=O)N2CC[C@@]3(S(=O)(=O)c4ccc(F)cc4)c4ccc(OCc5c(F)cccc5C(F)(F)F)cc4CC[C@@H]23)CC[C@H](C(=O)O)CC1` was tested, and the Activity was “Dose-dependent effect”.

Source: ChEMBL document CHEMBL4627376, “Substituted benzyloxytricyclic compounds as retinoic acid-related orphan receptor gamma t (RORγt) agonists” (Bioorg Med Chem Lett, 2020)
